The source of these data is PubChem BioAssay AID455 (Sanford-Burnham Center for Chemical Genomics, 2006).

The list shows a part of the results, in another mix than the full data. Some of these compounds have results that are not shown, active ones among them. Active and inactive are the calls of the source.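 The calls were made as follows: active = a compound raising TNF-alpha-driven VCAM-1 surface staining, with its hit status upheld on visual or statistical review; inactive = the rest, including hits rejected on review.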

This test is described as follows: boosters of cytokine-driven VCAM-1 levels – cell-based, plate reader, pooled HUVEC, TNFa stimulus (AID 455). The settings on record: HUVEC TNFa-induced VCAM-1 immunofluorescence.
For the compound `O=C(OC1CN2CCC1CC2)C(CO)(c1ccccc1)c1ccccc1` (stereo unspecified), the outcome was inactive.
